Amino acid sequences for entries named in this document (tags omitted). Residues count along the entry.
UniProt A0A3Q1MT31, 1-419: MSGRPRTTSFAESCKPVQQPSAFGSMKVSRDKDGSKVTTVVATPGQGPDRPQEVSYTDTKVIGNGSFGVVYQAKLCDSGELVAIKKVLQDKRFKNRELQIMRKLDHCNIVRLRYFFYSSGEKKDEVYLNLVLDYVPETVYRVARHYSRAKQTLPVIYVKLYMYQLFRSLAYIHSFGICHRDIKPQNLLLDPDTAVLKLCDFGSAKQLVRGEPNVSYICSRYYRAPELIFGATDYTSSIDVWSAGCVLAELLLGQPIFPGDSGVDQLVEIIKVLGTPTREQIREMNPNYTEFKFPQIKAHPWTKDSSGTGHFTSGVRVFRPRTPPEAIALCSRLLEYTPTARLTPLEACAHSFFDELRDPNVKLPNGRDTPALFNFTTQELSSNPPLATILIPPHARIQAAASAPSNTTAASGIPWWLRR

In US7572793B2, “3-Substituted-4-pyrimidone derivatives” (Mitsubishi Tanabe Pharma Corporation, priority 2001, dated 2009):

Target: bovine cerebral TPK1 (Bos taurus, UniProt A0A3Q1MT31)
Test: Inhibitory activity against P-GS1 phosphorylation by bovine cerebral TPK1
Conditions: 41.7 μM [γ-32P]ATP, 25° C., 2 hours, pH 6.5
Method: Inhibitory Activity of the Medicament of the Present Invention Against P-GS1 Phosphorylation by Bovine Cerebral TPK1
A mixture containing 100 mM MES-sodium hydroxide (pH 6.5), 1 mM magnesium acetate, 0.5 mM EGTA, 5 mM β-mercaptoethanol, 0.02% Tween 20, 10% glycerol, 12 μg/ml P-GS1, 41.7 μM [y-^32P] ATP (68 kBq/ml), bovine cerebral TPK1 and a compound shown in Table (a final mixture contained 1.7% DMSO deriving from a solution of a test compound prepared in the presence of 10% DMSO) was used as a reaction system. The phosphorylation was started by adding ATP, and the reaction was conducted at 25° C. for 2 hours, and then stopped by adding 21% perchloric acid on ice cooling. The reaction mixture was centrifuged at 12,000 rpm for 5 minutes and adsorbed on P81 paper (Whatmann), and then the paper was washed four times with 75 mM phosphoric acid, three times with water and once with acetone. The paper was dried, and the residual radioactivity was measured using a liquid scintillation counter. […] PHF formation, and that the medicaments of the present invention are effective for preventive and/or therapeutic treatment of Alzheimer disease and the above-mentioned diseases.

Q: `Cn1c(N2CCOC(c3ccc(F)c(Br)c3)C2)nc(-c2ccncn2)cc1=O` (stereo not shown) was tested. Which IC50 did it give?
A: The IC50 was 0.6 nM.
